# Laboratory results reported in patent publication EP4847008A1, “COMPOSITION FOR PREVENTING HAIR LOSS, PROMOTING HAIR GROWTH OR INCREASING HAIR DENSITY” (dated 2026).
# The chains behind the UniProt entries cited, without tags or fusion partners.
# UniProt P31214, whole entry: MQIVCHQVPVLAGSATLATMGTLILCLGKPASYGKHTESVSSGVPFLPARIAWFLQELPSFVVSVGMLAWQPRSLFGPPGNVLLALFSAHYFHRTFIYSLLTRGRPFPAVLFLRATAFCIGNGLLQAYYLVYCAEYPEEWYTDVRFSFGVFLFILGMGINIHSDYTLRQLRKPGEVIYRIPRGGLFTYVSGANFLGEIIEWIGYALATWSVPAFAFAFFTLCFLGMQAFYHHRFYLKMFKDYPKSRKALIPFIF
# Target: Type II 5α-reductase (Rattus norvegicus, UniProt P31214)
# Assay: Anti-hair loss efficacy test - 5α-reductase inhibition rate (testosterone peak area by HPLC)
structure (smiles),measurement,setting,value
CC(C)(C)NC(=O)[C@H]1CC[C@H]2[C@@H]3CC[C@H]4NC(=O)C=C[C@]4(C)[C@H]3CC[C@]12C,5α-reductase activity inhibition rate (%),"experiments at Guangzhou Chn-Alternative Biotechnology, finasteride solution 1 µmol/L in absolute ethanol",79.79±0.33 %
same,5α-reductase activity inhibition rate (%),"experiments at SINOLIGHT SLSAC, positive control, 1 µM finasteride solution, 37 °C, 30 min",72.21%
